# Assay results: patent EP0174114A1, “Platinum complexes of ascorbic acid and ascorbic acid analogs” (priority 1984, dated 1986)
# Experiment: Relative water solubility of the diastereomers
# Format: physicochemical
# Conditions: ratio of water solubility, R,R isomer versus S,S isomer
# Source text: These two isomers are diastereomers, having different physical and chemical properties. The R,R isomer is less than 1/10 as water soluble as the S,S isomer. […] This affords a method of resolving racemic trans-dach into its R,R and S,S forms. As with the cis-dach complexes the isomers of [Pt(trans-dach)(ascorbate)] are highly water- stable.
substance,measurement,value
"[Pt(R,R-trans-dach)(ascorbate)].3H2O [[Pt(R,R-trans-dach)-(ascorbate)]]","water soluble (relative to the S,S isomer)",less than 1/10
